Earlier results on 1 compound are cited in publication PMC10803328 (Scientific Reports, 2024).

Chains of the proteins cited; added tags and fusions are not shown. Lines headed by an entry give the natural chain unless they say otherwise; changes in a name come on top.
UniProt P23415: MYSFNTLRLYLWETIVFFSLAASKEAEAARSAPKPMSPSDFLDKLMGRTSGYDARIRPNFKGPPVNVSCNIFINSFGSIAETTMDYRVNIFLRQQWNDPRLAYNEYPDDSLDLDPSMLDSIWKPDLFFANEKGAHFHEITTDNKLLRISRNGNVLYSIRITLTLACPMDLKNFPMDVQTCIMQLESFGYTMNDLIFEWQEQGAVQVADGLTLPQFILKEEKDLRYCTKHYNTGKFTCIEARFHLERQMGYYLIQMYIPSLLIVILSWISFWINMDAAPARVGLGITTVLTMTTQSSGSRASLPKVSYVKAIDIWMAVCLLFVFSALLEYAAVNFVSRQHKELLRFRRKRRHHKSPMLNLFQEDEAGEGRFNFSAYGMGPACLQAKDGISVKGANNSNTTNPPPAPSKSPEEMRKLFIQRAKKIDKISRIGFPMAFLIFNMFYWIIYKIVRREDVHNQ
UniProt P36544: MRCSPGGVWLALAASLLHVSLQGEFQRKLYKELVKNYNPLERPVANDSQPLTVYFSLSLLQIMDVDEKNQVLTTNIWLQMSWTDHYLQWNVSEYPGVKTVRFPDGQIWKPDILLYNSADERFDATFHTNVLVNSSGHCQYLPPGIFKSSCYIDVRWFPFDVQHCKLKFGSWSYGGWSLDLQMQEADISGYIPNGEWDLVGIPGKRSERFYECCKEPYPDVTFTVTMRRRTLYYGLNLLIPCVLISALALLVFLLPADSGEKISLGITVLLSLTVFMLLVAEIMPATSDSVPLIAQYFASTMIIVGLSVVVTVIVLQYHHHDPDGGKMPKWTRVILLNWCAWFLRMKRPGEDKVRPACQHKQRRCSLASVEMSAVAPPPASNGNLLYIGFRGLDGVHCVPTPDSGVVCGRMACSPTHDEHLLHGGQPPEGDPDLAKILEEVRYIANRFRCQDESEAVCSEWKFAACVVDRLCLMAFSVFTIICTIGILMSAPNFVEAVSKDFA

A word on the Ki: it is a dissociation constant, usually derived from enzyme kinetics or from competition with a known ligand.

The target in the data set is PSAM^4-GlyR (Homo sapiens, UniProt P23415+P36544, L131G/Q139L/Y217F). On the set-up: expressed in transfected cells; method as in PMID 30872534, PMID 24556591, PMID 36279419. The conditions noted are these: read-out: PSAM^4-GlyR (Ki); in vitro binding assay, literature; cited from earlier work.

Take `O=S1(=O)c2cc(N3CCN4CCC3CC4)ccc2-c2cccc(F)c21` [ASEM]: the Ki is 0.26 nM.
